The values that follow come from patent US20220267379A1, “NOVEL INHIBITORS OF […] AND USES THEREOF” (Ecole Polytechnique Federale de Lausanne (EPFL), priority 2019, published 2022).

By UniProt entry, the sequences of proteins in these tests, tags left out. Residues count along the entry.
human Kallikrein-related peptidase 5 (hKLK5) (human), Q9Y337, UniProt Q9Y337, 67-293: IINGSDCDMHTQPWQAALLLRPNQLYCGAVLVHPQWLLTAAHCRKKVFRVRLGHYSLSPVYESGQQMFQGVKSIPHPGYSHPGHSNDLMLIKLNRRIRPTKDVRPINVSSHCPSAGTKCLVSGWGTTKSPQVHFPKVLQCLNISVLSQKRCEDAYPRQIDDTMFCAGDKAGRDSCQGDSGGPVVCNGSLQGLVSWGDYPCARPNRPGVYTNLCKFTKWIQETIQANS

Assay [1] concerns the target T1, human Kallikrein-related peptidase 5 (hKLK5) (human), Q9Y337. Description: enzyme inhibition; pyridine linker. Particulars: modification not given.
For assay [2], the target named is T1, human Kallikrein-related peptidase 5 …. Briefly: enzyme inhibition; 1,3-dibromoacetone linker. The note with it: modification not given.

For orientation: Ki means a measure of affinity in units of concentration, obtained from inhibition or displacement. Read a high Ki as lower affinity.

B1: 028 (peptide)
chain: GCTRQWC
In turn, B1 returned a Ki in assay [1] of 29 nM.

B2: 006 (peptide)
chain: MCSRQWDPSLCCPQRTCP
B2 gave a Ki in assay [2] of 24 nM.

B3: 005 (peptide)
chain: ACTREYNPQCANPQCLCH
In assay [2], B3 returned a Ki of 28 nM.
